Experimental data reported in patent publication US5049694A, “Pharmaceutical composition having relaxing activity which contains a nitrate ester as active substance” (Cedona Pharmaceuticals B.V., priority 1988, dated 1991).

Tested on: contracted strips of the rats' arota
Assay: relaxing potency in vitro on phenylefrine-contracted strips of rat aorta
Conditions: read-out: EC50 (concentration with which relaxation took place up to 50% of the contraction induced by 10^-7 M phenylefrine); rat thoracal aorta strips, contracted with 10^-7 M phenylefrine, cumulative concentrations, 37° C.
Protocol: The relaxing potency of the compounds as described is tested in vitro on contracted strips of the rats' arota. Male Wistar rates (200-220 g) are killed by decapitation. The thoracal aorta is removed and is helically cut into strips (length: ±10 mm, width: ±2 mm; 4 strips per rat).
The strips are suspended in organ baths filled with 20 ml of Krebs' medium with a constant temperature of 37° C. passing through O2 /CO2 (95/5) and subsequently for 2 h equilibrated under an isotonic load of 500 mg. The medium is renewed every 20 minutes.
After equilibration contraction takes place by addition of 10^-7M phenylefrine to the medium. After reaching the maximal contraction the composition with the organic nitrate ester to be tested in cumulative concentration steps is relaxed.
The degree of relaxation is expressed as a percentage of the maximal contraction (=100%) reached with 10^-7 M phenylefrine. The relaxing potency of the tested compounds is expressed as the EC50 : the concentration with which relaxation took place up to 50% of the contraction induced by 10^-7 M phenylefrine. From a number of compounds the EC50 -values have been stated in Table 1. For comparison the EC50 -values of glyceryltrinitrate and isosorbidedinitrate have also been included.

O=[N+]([O-])OCCCCCCO[N+](=O)[O-]
EC50: 19 nM

Only a part of the results on these compounds is given; other tests are left out.
